The entries are a selection whose mix differs from that of the whole data set. Calls of active or inactive are those of the source.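 The calls were made as follows: active = every valid replicate shows activation above 250% relative to neutral control wells; inactive = the rest, any valid replicate at or below 250%.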
Test: restored growth of temperature-sensitive Mot1-301 yeast – S. cerevisiae, ATP luminescence, 38.5C, SUMOylation pathway inhibitor project, primary screen (AID 2716);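 also: OY570 slx delta 5 strain wells were the positive control but not used for scaling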
Details: S. cerevisiae Mot1-301 growth rescue, at 18.8 µM, stronger effect = higher value, percent above DMSO median, 100 means doubled

SMILES	growth rescue
COc1ccccc1OP(=O)(Nc1ccc(C)cn1)Oc1ccccc1OC	inactive: 137%
Cc1ccc(OP(=O)(Nc2nccs2)Oc2ccc(C)cc2)cc1	inactive: -14.2%
CN1CCCC(OC(=O)C(c2ccccc2)c2ccccc2)C1 (configuration not stated)	inactive: 2.94%
Clc1ccc(Cl)c(NC2=NCC(CBr)S2)c1 (configuration not stated)	inactive: 8.61%
NC(=O)c1cc([N+](=O)[O-])cc([N+](=O)[O-])c1N	inactive: 96.5%
CN(C(=O)Cc1ccc(Cl)c(Cl)c1)[C@H]1CCCC[C@H]1N1CCCC1	inactive: 4.68%
Cc1ccc(N/C(=N/P(=O)(N2CCOCC2)N2CCOCC2)N2CCOCC2)cc1	inactive: 5.85%
Nc1cc(N)c2nonc2c1[N+](=O)[O-]	inactive: -15.4%
CC(C)CC(=O)NC(Sc1ccc(Cl)cc1)C(Cl)(Cl)Cl (configuration not stated)	inactive: -6.85%
Oc1ccccc1CNc1ccccn1	inactive: -2.77%
O=C(NC(Sc1ccncn1)C(Cl)(Cl)Cl)c1ccccc1 (configuration not stated)	inactive: -0.451%
Cc1c2non([O-])c-2c(C)[n+](=O)[n+]1[O-]	inactive: -17.3%
CC(C)(C)C(=O)NC(Sc1ccccc1)C(Cl)(Cl)Cl (configuration not stated)	inactive: -9.45%
O=P1(Nc2nc3ccc(Cl)cc3s2)COc2ccccc2O1 (configuration not stated)	inactive: 22.7%
CCOc1ccc(C2=NCC(CBr)S2)cc1 (configuration not stated)	inactive: 16.6%
CC(=O)Nc1ccc([As](=O)(O)O)c(O)c1	inactive: 8.7%
CC(=O)Nc1ccc(Oc2c([N+](=O)[O-])cc([N+](=O)[O-])cc2[N+](=O)[O-])cc1	inactive: -1.16%
CC(=O)c1ccc(N2CC2c2ccncc2)cc1 (configuration not stated)	inactive: -9.08%
C[C@H]1OP(=O)(Oc2ccccc2)C[C@@H]2O[C@@H]21 (some centres not stated)	inactive: 9.07%
C[C@@H]1C=CCP(=O)(Oc2ccccc2)O1 (some centres not stated)	inactive: 10%
CCNC(=S)/N=C(\N)N[N+](=O)[O-]	inactive: -20.8%
O=C(NC1CCS(=O)(=O)C1)NP(=S)(Oc1ccccc1)Oc1ccccc1 (configuration not stated)	inactive: 13.7%
c1ccc(-c2nn[nH]n2)c(-c2nn[nH]n2)c1	inactive: -0.98%
CCOC(=O)NC(Sc1ccccc1)C(Cl)(Cl)Cl (configuration not stated)	inactive: -8.36%

SMILES	growth rescue
Cc1ccc(NP(=O)(Oc2cccc(C)c2)Oc2cccc(C)c2)nc1	inactive: -6.38%
CC(NC(=O)COC(=O)C(O)(c1ccccc1)c1ccccc1)c1ccccc1 (configuration not stated)	inactive: 5.84%
Cc1ccccc1OP(=O)(Nc1ccccn1)Oc1ccccc1C	inactive: -0.919%
CN(C)C(=O)Oc1noc2ccccc12	inactive: 8.89%
COC(=O)c1cc2c(s1)N=C(c1ccccc1)N(C)P2(=O)N1CCOCC1 (configuration not stated)	inactive: -16.6%
Cc1ccc(OP(=O)(Nc2ccccn2)Oc2ccc(C)cc2)cc1	inactive: 129%
CC(=O)NC(SC(=S)N(CC(C)C)CC(C)C)C(Cl)(Cl)Cl (configuration not stated)	inactive: -5.48%
O=C(OC1CN2CCC1CC2)c1ccccc1 (configuration not stated)	inactive: 30.1%
CCC(=O)N1C2C3N(C(=O)CC)C1C1N(C(=O)CC)C(C(N1C(=O)CC)N3C(=O)CC)N2C(=O)CC	inactive: 5.09%
O=P(Nc1nc2ccccc2s1)(c1ccccc1)c1ccccc1	inactive: -14.5%
C[C@H]1OP(=O)(Oc2ccccc2)[C@H](O)[C@H](O)[C@H]1N=[N+]=[N-] (some centres not stated)	inactive: 26%
O=P(Nc1ccccn1)(c1ccc(Br)cc1)c1ccc(Br)cc1	inactive: 285%
CN(C)C1(CNC(=O)c2ccc(Cl)c(S(N)(=O)=O)c2)CCCCC1	inactive: 63.1%
C(Cc1nn[nH]n1)Cc1nn[nH]n1	inactive: -17.8%
Nc1ccc([As](=O)(O)c2ccc([N+](=O)[O-])cc2)cc1	inactive: 8.73%
O=C(OC1CN2CCC1CC2)c1cccc(Cl)c1 (configuration not stated)	inactive: 7.34%
O=[N+]([O-])c1ccc(O)c(/C=N/Nc2ccc([N+](=O)[O-])cc2[N+](=O)[O-])c1	inactive: 62.5%
O=[N+]([O-])c1ncn(CCn2cnc([N+](=O)[O-])n2)n1	inactive: 2.48%
CC(=O)NC(SC(=S)N(C)C)C(Cl)(Cl)Cl (configuration not stated)	inactive: -14.7%
O=[As](O)(c1ccccc1)c1ccc(O)cc1	inactive: -21%
c1nnnn1CCn1cnnn1	inactive: 188%
CC(C)C(=O)NC(Sc1ccccc1)C(Cl)(Cl)Cl (configuration not stated)	inactive: -18.4%
O=P(Nc1nccs1)(c1ccccc1)c1ccccc1	inactive: -0.0125%

— PubChem BioAssay AID2716 (Broad Institute, 2010)
